For one series, the system named is HT-22. Description: Cytotoxicity against mouse HT-22 cells assessed as cell viability at 10 uM incubated for 18 hrs by MTT assay relative to control. The note with it: ht-22, 18 h.
In series [1] the target is Voltage-gated inwardly rectifying potassium channel KCNH2 (Homo sapiens, UniProt Q12809). Description: Inhibition of hERG at 10 uM by fluorescence polarization assay relative to control.

Protein sequences, listed by entry. Tags and fused reporters are not part of them.
UniProt Q12809, whole entry: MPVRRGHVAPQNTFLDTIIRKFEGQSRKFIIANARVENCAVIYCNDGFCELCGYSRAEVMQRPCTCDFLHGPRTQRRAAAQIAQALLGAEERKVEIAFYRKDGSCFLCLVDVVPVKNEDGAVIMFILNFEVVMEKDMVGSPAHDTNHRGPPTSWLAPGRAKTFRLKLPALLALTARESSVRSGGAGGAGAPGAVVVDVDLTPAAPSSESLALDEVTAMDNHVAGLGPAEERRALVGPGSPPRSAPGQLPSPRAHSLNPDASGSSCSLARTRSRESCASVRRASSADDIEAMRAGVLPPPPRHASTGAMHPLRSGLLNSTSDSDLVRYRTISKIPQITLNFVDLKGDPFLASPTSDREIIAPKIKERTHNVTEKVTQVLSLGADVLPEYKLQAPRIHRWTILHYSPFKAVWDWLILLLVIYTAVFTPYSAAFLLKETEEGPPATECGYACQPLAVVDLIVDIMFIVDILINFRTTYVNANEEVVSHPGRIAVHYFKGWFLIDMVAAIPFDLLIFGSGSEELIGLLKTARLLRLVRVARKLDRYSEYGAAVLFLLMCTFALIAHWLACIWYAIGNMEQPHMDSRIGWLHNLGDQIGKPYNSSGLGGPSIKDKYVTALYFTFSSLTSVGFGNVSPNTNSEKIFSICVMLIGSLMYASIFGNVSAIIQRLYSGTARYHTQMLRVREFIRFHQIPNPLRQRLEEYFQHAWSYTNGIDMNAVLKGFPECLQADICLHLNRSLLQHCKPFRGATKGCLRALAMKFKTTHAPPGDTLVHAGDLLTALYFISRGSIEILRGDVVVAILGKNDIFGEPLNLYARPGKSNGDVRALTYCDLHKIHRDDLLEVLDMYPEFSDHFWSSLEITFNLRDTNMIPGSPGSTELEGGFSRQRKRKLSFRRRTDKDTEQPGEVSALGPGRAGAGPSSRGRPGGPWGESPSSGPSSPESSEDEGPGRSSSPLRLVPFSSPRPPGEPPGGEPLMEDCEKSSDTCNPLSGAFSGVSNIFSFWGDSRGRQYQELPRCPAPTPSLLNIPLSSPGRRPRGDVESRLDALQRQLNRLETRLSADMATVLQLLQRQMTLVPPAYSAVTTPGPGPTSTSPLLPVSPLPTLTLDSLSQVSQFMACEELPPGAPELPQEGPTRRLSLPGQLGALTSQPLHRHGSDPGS

Molecules are shown by their SMILES. This is a selection: effects in other tests are not listed, and their absence says nothing.

Turning to `Cc1nn(C)c2cc(N(C(=O)NCCCn3cncc3C)C3CCN(C)CC3)ccc12`, the Activity in the series on HT-22 worked out at 115%. This compound also yielded an inhibition (INH) in series [1] of 19.2%.
